The target in this assay is human recombinant PDE5 (Homo sapiens, UniProt O76074). Nature of the assay: Inhibitory effect on cGMP-PDE (PDE5 IC50, one-step assay). In kind it is biochemical. Conditions: read-out: PDE5 IC50, in vitro. On the procedure:
The compounds of structural formula (I) were tested for an ability to inhibit PDE5. The ability of a compound to inhibit PDE5 activity is related to the IC50 value for the compound, i.e., the concentration of inhibitor required for 50% inhibition of enzyme activity. The IC50 value for compounds of structural formula (I) were determined using recombinant human PDE5.
cGMP-PDE activity of compounds of the present invention was measured using a one-step assay adapted from Wells et al., Biochim. Biophys. Acta, 384, 430 (1975). The reaction medium contained 50 mM Tris-HCl, pH 7.5, 5 mM magnesium acetate, 250 μg/ml 5′-Nucleotidase, 1 mM EGTA, and 0.15 μM 8-[H^3]-cGMP. Unless otherwise indicated, the enzyme used was a human recombinant PDE5 (ICOS Corp., Bothell, Wash.).
Compounds of the invention were dissolved in DMSO finally present at 2% in the assay.
The IC50 is the point on the concentration scale where inhibition reaches its midpoint. In the case of `NCC[C@@H]1NC(=O)[C@H]2Cc3c([nH]c4ccccc34)[C@@H](c3ccc4c(c3)OCO4)N2C1=O`, the half-maximal inhibitory concentration (IC50) was found to be 420 nM.
Next, `O=C1N[C@@H](CCl)C(=O)N2[C@H](c3ccc4c(c3)OCO4)c3[nH]c4ccccc4c3C[C@H]12`: 10 nM; `NCCCC[C@@H]1NC(=O)[C@H]2Cc3c([nH]c4ccccc34)[C@@H](c3ccc4c(c3)OCO4)N2C1=O`: 0.03 nM; `CC(C)(C)OC(=O)C[C@@H]1NC(=O)[C@H]2Cc3c([nH]c4ccccc34)[C@@H](c3ccc4c(c3)OCO4)N2C1=O`: 8.6 nM.
For the molecule `CCOC(=O)C[C@@H]1NC(=O)[C@H]2Cc3c([nH]c4ccccc34)[C@@H](c3ccc4c(c3)OCO4)N2C1=O`, the IC50 stood at 8.6 nM.
On to `O=C(O)C[C@@H]1NC(=O)[C@H]2Cc3c([nH]c4ccccc34)[C@@H](c3ccc4c(c3)OCO4)N2C1=O`, for which the concentration for half-maximal inhibition (IC50) came to 9.2 nM.
On to `O=C(O)C[C@H]1NC(=O)[C@H]2Cc3c([nH]c4ccccc34)[C@@H](c3ccc4c(c3)OCO4)N2C1=O`, for which the 50% inhibitory concentration (IC50) is 20 nM.
Turning to `O=C(CC1NC(=O)[C@H]2Cc3c([nH]c4ccccc34)[C@@H](c3ccc4c(c3)OCO4)N2C1=O)NCCN1CCCC1` (some centres unmarked), the IC50 was 50 nM.
As for `O=C(C[C@@H]1NC(=O)[C@H]2Cc3c([nH]c4ccccc34)[C@@H](c3ccc4c(c3)OCO4)N2C1=O)OC1CCCC1`, the IC50 was 7 nM.
On to `CN(C)c1ccc(CNC(=O)C[C@@H]2NC(=O)[C@H]3Cc4c([nH]c5ccccc45)[C@@H](c4ccc5c(c4)OCO5)N3C2=O)cc1`, for which the half-inhibitory concentration (IC50) is 90 nM.
As to `O=C(C[C@@H]1NC(=O)[C@H]2Cc3c([nH]c4ccccc34)[C@@H](c3ccc4c(c3)OCO4)N2C1=O)OCC(F)(F)F`, the IC50 is 9 nM.
`COC(=O)C[C@@H]1NC(=O)[C@H]2Cc3c([nH]c4ccccc34)[C@@H](c3ccc4c(c3)OCO4)N2C1=O`: the IC50 was 10 nM.
Take `NC[C@@H]1NC(=O)[C@H]2Cc3c([nH]c4ccccc34)[C@@H](c3ccc4c(c3)OCO4)N2C1=O`: the half-maximal inhibitory concentration (IC50) was 80 nM.
On to `CN1CCN(C(=O)C[C@@H]2NC(=O)[C@H]3Cc4c([nH]c5ccccc45)[C@@H](c4ccc5c(c4)OCO5)N3C2=O)CC1`, for which the IC50 is 80 nM.
Next, `CC(C)OC(=O)C[C@@H]1NC(=O)[C@H]2Cc3c([nH]c4ccccc34)[C@@H](c3ccc4c(c3)OCO4)N2C1=O`: 7.8 nM; `O=C1N[C@@H](Cc2cccnc2)C(=O)N2[C@H](c3ccc4c(c3)OCO4)c3[nH]c4ccccc4c3C[C@H]12`: 90 nM.
For the molecule `O=C1NC(Cn2cccn2)C(=O)N2[C@H](c3ccc4c(c3)OCO4)c3[nH]c4ccccc4c3C[C@H]12` (some centres unmarked), the IC50 was found to be 600 nM.
Take `CCCCCCCOC(=O)C[C@@H]1NC(=O)[C@H]2Cc3c([nH]c4ccccc34)[C@@H](c3ccc4c(c3)OCO4)N2C1=O`: the IC50 was 30 nM.
As for `O=C1N[C@@H](COCc2ccccc2)C(=O)N2[C@H](c3ccc4c(c3)OCO4)c3[nH]c4ccccc4c3C[C@H]12`, the half-inhibitory concentration (IC50) turned out to be 9.5 nM.
`CCOC(=O)CC[C@@H]1NC(=O)[C@H]2Cc3c([nH]c4ccccc34)[C@@H](c3ccc4c(c3)OCO4)N2C1=O`: the IC50 was 8 nM.

The values are drawn from US7034027B2, “Fused heterocyclic derivatives as phosphodiesterase inhibitors” (Lilly Icos LLC, priority 2000, dated 2006).
